Assay results from ChEMBL document CHEMBL6153079, “Discovery of noncovalent diaminopyrimidine-based Inhibitors for glioblastoma via a dual FAK/DNA targeting strategy” (Eur J Med Chem, 2025).

Protein sequences, listed by entry. Tags and fused reporters are not part of them.
UniProt Q05397, whole entry, looked up: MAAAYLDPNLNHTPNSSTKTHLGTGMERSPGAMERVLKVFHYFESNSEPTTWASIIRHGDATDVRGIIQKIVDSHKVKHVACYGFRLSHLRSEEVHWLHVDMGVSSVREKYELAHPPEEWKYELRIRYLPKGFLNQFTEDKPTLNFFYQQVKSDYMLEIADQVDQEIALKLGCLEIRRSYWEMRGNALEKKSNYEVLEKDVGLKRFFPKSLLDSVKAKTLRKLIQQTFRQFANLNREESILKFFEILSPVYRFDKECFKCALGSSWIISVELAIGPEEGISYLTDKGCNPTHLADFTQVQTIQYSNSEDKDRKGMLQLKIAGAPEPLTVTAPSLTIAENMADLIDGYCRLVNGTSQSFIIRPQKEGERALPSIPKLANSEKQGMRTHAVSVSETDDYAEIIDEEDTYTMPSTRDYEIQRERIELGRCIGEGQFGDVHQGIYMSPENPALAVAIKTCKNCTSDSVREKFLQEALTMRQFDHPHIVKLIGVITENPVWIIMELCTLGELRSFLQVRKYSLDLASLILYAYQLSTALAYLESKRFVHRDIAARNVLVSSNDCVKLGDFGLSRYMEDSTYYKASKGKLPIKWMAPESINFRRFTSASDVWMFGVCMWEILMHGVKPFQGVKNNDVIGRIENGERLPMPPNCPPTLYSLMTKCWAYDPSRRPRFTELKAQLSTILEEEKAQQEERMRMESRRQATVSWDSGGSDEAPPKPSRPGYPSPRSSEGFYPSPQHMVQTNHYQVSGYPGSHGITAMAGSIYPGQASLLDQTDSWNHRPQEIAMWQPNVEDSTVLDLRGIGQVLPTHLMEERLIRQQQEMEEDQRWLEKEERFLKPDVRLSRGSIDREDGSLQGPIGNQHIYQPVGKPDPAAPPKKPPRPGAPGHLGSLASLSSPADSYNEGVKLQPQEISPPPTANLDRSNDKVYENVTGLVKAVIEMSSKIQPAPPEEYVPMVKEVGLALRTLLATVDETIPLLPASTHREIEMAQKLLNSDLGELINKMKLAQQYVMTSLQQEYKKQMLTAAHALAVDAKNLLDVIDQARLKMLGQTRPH

What was measured:
Focal adhesion kinase 1 [1] = target: T1, Focal adhesion kinase 1 (Homo sapiens, UniProt Q05397); assay: Inhibition of FAK (unknown origin) at 10 nM relative to control
Focal adhesion kinase 1 [2] = target: T1, Focal adhesion kinase 1; assay: Inhibition of FAK (unknown origin) at 50 nM relative to control

SMILES: O=C(O)c1ccc(N(CCCl)CCCl)cc1
- inhibition (Focal adhesion kinase 1 [1]): 1.42%
- inhibition (Focal adhesion kinase 1 [2]): 7.82%
